Results reported in ChEMBL document CHEMBL1142705, “Rational design, synthesis, and structure-activity relationships of aryltriazoles as novel corticotropin-releasing factor-1 receptor antagonists” (J Med Chem, 2005).

Biological target: T1, Corticotropin-releasing factor receptor 1 (Homo sapiens, UniProt P34998)
T1 sequence (P34998 whole entry): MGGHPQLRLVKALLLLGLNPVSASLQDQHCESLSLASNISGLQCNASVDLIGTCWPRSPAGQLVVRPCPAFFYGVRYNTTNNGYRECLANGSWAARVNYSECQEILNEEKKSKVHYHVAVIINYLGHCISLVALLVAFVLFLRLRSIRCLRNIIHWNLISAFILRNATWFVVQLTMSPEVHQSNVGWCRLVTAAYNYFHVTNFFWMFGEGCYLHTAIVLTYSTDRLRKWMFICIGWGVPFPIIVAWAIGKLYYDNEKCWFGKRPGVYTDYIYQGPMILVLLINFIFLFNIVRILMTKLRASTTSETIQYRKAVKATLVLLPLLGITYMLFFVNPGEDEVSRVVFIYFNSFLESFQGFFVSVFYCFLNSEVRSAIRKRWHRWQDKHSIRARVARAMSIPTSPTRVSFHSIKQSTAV
Experiment: Inhibition of [125I][Tyr0]-sauvagine binding to human Corticotropin releasing factor receptor 1 expressed in mouse fibroblast Ltk- cells
Type: cell-based

| Ki [µM] | Compound |
| --- | --- |
| 4.5 | CCCN(c1n[nH]c(-c2ccc(Cl)cc2Cl)n1)C(C1CC1)C1CC1 |
| 0.0068 | CCCCC(c1ccccc1)N(CCC)c1nc(-c2ccc(Cl)cc2OC)n(C)n1 (configuration not stated) |
